Reference: publication PMC12067442 (Journal of Medicinal Chemistry, 2025)

How the values were obtained:
[1] = tested on: Glutamate Ion Channel
[2] = tested on: Glycine Ion Channel
[3] = tested on: DA secretion by PC12 cells; conditions: 10 μM, 24 h incubation, 10 min 59 mM K+
[4] = tested on: mice
[5] = tested on: mice; remark: listed apart in the source
[6] = tested on: mice; remark: listed apart in the source
[7] = tested on: mice; conditions: chronic, daily 0.5 mg/kg i.p.; tendency, significant only in week 4 in response to 10 mg/kg
[8] = chronic, daily 0.5 mg/kg i.p., 4 weeks
[9] = tested on: mice midbrain and brainstem
[10] = chronic, daily 0.5 mg/kg i.p., 4 weeks
[11] = acute, 10 mg/kg, 1 h after treatment

For `c1ccc(CN2CCCC[C@H]3NCC[C@H]32)cc1` [(R,R)-1a, (3aR,8aR)-4-Benzyldecahydropyrrolo[3,2-b]azepine], the “Glutamate Ion Channel (5 µM)” value [1] was 7.5, the “Glycine Ion Channel (5 µM)” value [2] was 28.3 and the “vesicular secretion of monoamines (DA) induced by 59 mM K+” value [3] was “did not affect”. For the same compound, the core body temperature ([4]; acute, 1.0 or 10 mg/kg i.p.) was “significant decrease”, the “body temperature upon weekly inspection” value [4, 10] was “unchanged” and the “motor coordination (Rotarod task)” value ([5]; acute, 1.0 or 10 mg/kg i.p.) was “severe deficits in motor coordination”. For the same compound, the “motor coordination (Rotarod)” value [5, 10] was “only slightly affected in week 1”, the “mobility in the light/dark box task” value ([6]; acute, 1.0 or 10 mg/kg i.p.) was “dramatically decreased mobility” and the “behavior in the light/dark box assay, treated versus control” value ([6]; chronic, daily 0.5 mg/kg i.p.) was “no significant difference in behavior”. For the same compound, the “mobility in the tail suspension test compared to controls” value [7] was “increased mobility”, the “body weight between treated and control mice at the end of the study period” value [8] was “lack of decrease” and the “NE, 5-HT and adenosine levels in the midbrain and 5-HT levels in the brainstem” value [9, 11] was “significantly decreased”. For the same compound, the “other neurotransmitters (DA, γ-aminobutyric acid, acetylcholine, glutamate, glycine)” value [9, 11] was “not affected” and the “neurotransmitter levels in the midbrain and brainstem” value ([9]; chronic exposure) was “did not yield significant changes”.
